Test results from patent US8822513B2, “Compounds for treatment of cancer” (GTX, Inc., priority 2010, dated 2014).

How the values were obtained:
PC-3 xenografts = assay: In vivo efficacy, PC-3 prostate tumor xenograft in nude mice; conditions: mouse, iv, 10 mg/kg
PC-3/TxR cells = assay: SRB cytotoxicity assay, paclitaxel-resistant PC-3/TxR; conditions: Table 15; data in parentheses; IC50 values in PC-3 and PC-3/TxR compared

`CC(=O)O[C@@]12CO[C@@H]1C[C@H](O)[C@@]1(C)C(=O)[C@H](O)C3=C(C)[C@@H](OC(=O)[C@H](O)[C@@H](NC(=O)OC(C)(C)C)c4ccccc4)C[C@@](O)([C@@H](OC(=O)c4ccccc4)[C@H]21)C3(C)C` [Docetaxel, reference compound] gave a TGI (PC-3 xenografts) of 84%.

In the case of `COc1cc(C(=O)c2csc(Nc3ccc4[nH]ccc4c3)n2)cc(OC)c1OC` [compound 55, (2-(1H-indol-5-yl amino)thiazol-4-yl)(3,4,5-trimethoxyphenyl)methanone], the “Resistance factor PC-3/TxR vs PC-3” value (PC-3/TxR cells) is reported as 0.4.
